Experimental data published in patent US20250059267A1, “COMBINATION THERAPY FOR TREATMENT OF TUMORS COMPRISING CANCER-ASSOCIATED FIBROBLASTS” (PHENOMIC AI, priority 2021, published 2025).

Test system: CCD-18Co normal colon fibroblasts
Assay: Cytokine stimulation of fibroblast monocultures, CAF marker immunofluorescence
Type: cell-based, human
Conditions: fibroblast monoculture, stimulated 48 hours
Protocol: FIG. 1 Fibroblast-cancer co-cultures lead to a greater increase in CAF activation markers than treatment with a single cytokine alone, indicating a cocktail of factors are needed to induce more disease relevant CAFs. CCD-18Co normal colon fibroblasts were either cultured in minimal media (Untreated), with the addition of a cytokine (TGF-β 1.2 ng/mL, TNF-α 1 ng/mL, PDGFbb 4 ng/mL, or aFGF 2 ng/mL), or co-cultured in minimal media with HCT116 or HT-29 colon cancer cells. A panel of 5 CAF markers were then used to stain the cultures and the expression levels of expression of the markers calculated from individual segmented fibroblasts.
First, we treated normal human fibroblasts with a panel of cytokines to induce activation, and then assessed CAF marker expression by immunofluorescence. Fibroblast monocultures were serum-starved for 24 hours then stimulated with TGF-β, TNF alpha, PDGFbb, acidic FGF or other cytokines for 48 hours. Cells were then fixed, permeabilized and stained with a panel of immunofluorescent CAF markers and imaged by high-content microscopy. […] Incubation with TNFα increased PDPN expression, but not CD248 expression, consistent with the idea that PDPN and CD248 mark different fibroblast states.

TNFα: cytokine used to stimulate fibroblasts
CD248 expression: not | PDPN expression: increased
